# Assay results published in PubChem BioAssay AID441 (NMMLSC, 2006).
# Chains of the proteins cited; added tags and fusions are not shown.
# UniProt P25090, whole entry: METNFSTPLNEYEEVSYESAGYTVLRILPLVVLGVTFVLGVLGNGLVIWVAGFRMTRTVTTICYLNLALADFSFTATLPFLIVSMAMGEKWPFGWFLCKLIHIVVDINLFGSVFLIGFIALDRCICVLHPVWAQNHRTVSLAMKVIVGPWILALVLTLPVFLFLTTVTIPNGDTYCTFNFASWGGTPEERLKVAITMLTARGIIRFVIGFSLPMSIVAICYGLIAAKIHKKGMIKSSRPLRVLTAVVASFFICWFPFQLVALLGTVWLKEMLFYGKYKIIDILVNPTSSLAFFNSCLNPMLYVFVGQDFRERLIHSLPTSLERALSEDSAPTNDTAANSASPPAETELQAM
# The list shows a part of the results, in another mix than the full data. Activity calls are given as the source filed them. Cut-off read from the data, not from the text of the source: active = inhibition above about 30%; inconclusive = no clear call, values can overlap the other calls; inactive = below that.
# Target: N-formyl peptide receptor 2 (Homo sapiens) (UniProt P25090)
# Experiment: human FPRL1 ligands by binding competition, primary screen, cell-based, FPR counter-screen, flow cytometry (AID 441);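 note: 0% = buffer alone and 100% = receptor blocker peptide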
# Conditions: FPRL1-expressing cells, fluorescent ligand binding inhibition, hits give high values, concentration not given here
row,Structure (SMILES),inhibition
1,Clc1n[nH]nc1-c1nn[nH][15n]1,inactive: 7.4%
2,Cc1nn(-c2ccccc2)c2c1P(=O)(N1CCOCC1)N(C)C(c1ccccc1)=N2 (centres undefined),inactive: 4.3%
3,CCOP1(=S)c2c(C)nn(CCC#N)c2N=C(c2ccccc2F)N1C (centres undefined),inactive: 2.4%
4,Cc1ccc(C)c(NP(C)(=O)Oc2ccccc2)c1 (centres undefined),inactive: -1.2%
5,CP(=S)(Nn1cnnc1)Oc1ccccc1 (centres undefined),inactive: -0.1%
6,O=C(COc1ccccc1)OC1CN2CCC1CC2 (centres undefined),inactive: -1%
7,COP1(=S)c2c(C)nn(CCC#N)c2N=C(c2ccc(F)cc2)N1C (centres undefined),inactive: -1.1%
8,CCc1nc2c(n1)c1c(non1O)c1c2no[n+]1[O-],inactive: 7.6%
9,Cc1nc2ccc3ccccc3c2o1.O=[N+]([O-])c1cc([N+](=O)[O-])c(O)c([N+](=O)[O-])c1,inactive: 8.6%
10,CP(=O)(Nc1ccccn1)Oc1ccccc1 (centres undefined),inactive: 2%
11,CN(C)CCOC(=O)C(O)(c1ccccc1)C1CCCCC1 (centres undefined),active: 54%
12,Cc1ccccc1NP(C)(=O)Nc1ccccc1C,inactive: 6.8%
13,CP(=O)(Nc1ccc2c(c1)OCCO2)Oc1ccccc1 (centres undefined),inactive: -2.5%
14,O=P(Nc1nccs1)(c1ccccc1)c1ccccc1,inactive: -4.1%
